{"source": "patent US11123292B2", "about": "“Use of biocompatible microdroplets for the treatment of atherosclerosis, heart disease and stroke” (priority 2014, dated 2021)", "key": {"[1]": {"assay": "Relative Energy Difference (RED) with cholesterol, calculated from HSP", "conditions": "RED=Ra/Ro, Ro of cholesterol 12.6"}, "[2]": {"conditions": "37° C.; cited from earlier work"}}, "data": [{"substance": "Butanol [reference compound]", "values": [{"measurement": "Relative Energy Difference (RED) with cholesterol", "setting": "[1]", "result": 0.944}, {"measurement": "mass fraction of cholesterol which will dissolve in a pure solution of the alcohol", "setting": "[2]", "result": 11.8, "unit": "%"}]}]}
